By UniProt entry, the sequences of proteins in these tests, tags left out. Where a name states a change or a piece, a line headed by the entry shows the natural chain unless it says otherwise.
UniProt P33535, whole entry: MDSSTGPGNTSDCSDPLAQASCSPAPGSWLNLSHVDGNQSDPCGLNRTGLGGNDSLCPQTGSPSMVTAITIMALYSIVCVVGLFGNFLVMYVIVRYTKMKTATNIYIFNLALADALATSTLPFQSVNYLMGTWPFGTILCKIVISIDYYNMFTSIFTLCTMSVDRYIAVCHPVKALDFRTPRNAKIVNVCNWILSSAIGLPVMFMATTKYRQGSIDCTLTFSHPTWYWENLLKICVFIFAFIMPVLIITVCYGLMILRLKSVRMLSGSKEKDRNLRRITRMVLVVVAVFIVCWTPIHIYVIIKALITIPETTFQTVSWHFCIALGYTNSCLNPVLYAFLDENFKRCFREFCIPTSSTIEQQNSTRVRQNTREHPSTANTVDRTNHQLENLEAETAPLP
UniProt P41144: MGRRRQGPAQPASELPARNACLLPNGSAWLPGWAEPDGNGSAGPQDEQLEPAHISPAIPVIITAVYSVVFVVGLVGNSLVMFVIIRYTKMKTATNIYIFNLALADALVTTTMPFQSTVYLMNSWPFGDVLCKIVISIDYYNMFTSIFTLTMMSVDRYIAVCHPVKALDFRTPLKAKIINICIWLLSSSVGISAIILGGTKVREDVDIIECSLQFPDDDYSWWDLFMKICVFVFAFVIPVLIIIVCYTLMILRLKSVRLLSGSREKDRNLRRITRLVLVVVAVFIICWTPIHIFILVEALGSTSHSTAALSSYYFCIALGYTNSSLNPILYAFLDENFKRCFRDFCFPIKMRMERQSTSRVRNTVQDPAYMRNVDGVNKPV

According to PMC5222732 (Journal of medicinal chemistry, 2016):

What was measured:
μ opioid receptor (MOR) = μ opioid receptor (MOR) (Rattus norvegicus, UniProt P33535); assay: biochemical; format: binding
κ opioid receptor (KOR) [1] = biological target: T1, κ opioid receptor (KOR) (Cavia porcellus, UniProt P41144); format: binding, guinea pig
κ opioid receptor (KOR) [2] = biological target: T1, κ opioid receptor (KOR); assay: GPI functional assay, κ antagonist Ke; format: cell-based, guinea pig

## CCCC[C@@H]1NC(=O)[C@H](Cc2ccccc2)NC(=O)[C@@H](CCCNC(=N)N)NC(=O)[C@H](Cc2c(C)cc(O)cc2C)NC1=O [compound 4, c[-D-Arg-Phe-Nle-Dmt-]]
μ opioid receptor (MOR)
  Ki: 0.00154 ± 0.00018 µM
κ opioid receptor (KOR) [1]
  Ki: 0.0227 ± 0.0053 µM
κ opioid receptor (KOR) [2]
  Kb: 0.0497 ± 0.0039 µM
